# Earlier results as cited in patent US9938273B2 (Plexxikon Inc., priority 2015, dated 2018).
# Tested on: relapsed or chemotherapy-refractory FLT3-ITD+ AML patients
# Conditions: phase II monotherapy; cited from earlier work
structure (smiles),measurement,value
CC(C)(C)c1cc(NC(=O)Nc2ccc(-c3cn4c(n3)sc3cc(OCCN5CCOCC5)ccc34)cc2)no1 [quizartinib],composite complete remission (CRc) rate,about 50%
